# Results reported in patent publication US9669054B2, “pH buffered bioactive glass, and its preparation process and use” (CHANGZHOU BIO-SHENG TECHNOLOGY CO., LTD., priority 2011, dated 2017).
# Key:
# [1] = tested on: acetic-acid induced chronic gastric ulcers; test: Treatment of acetic-acid induced chronic gastric ulcers in rats; type: in vivo
# Experimental: In this study and experiment, we studied the dose-effect relationship of the tested drug (the bioactive glass) by adopting the rat model of acetic-acid induced chronic gastric ulcers, and using hydrotalcite and omeprazole as the positive controls, so as to evaluate the effect of the bioactive glass in the treatment of chronic gastric ulcers.
# After fasting for 24 hours, the rats were anesthetized and disinfected in a conventional way, and then was cut from the xiphoid down along the medioventral line to about 2 cm, so as to remove the stomach from the enterocoelia; 5 μl of 100% glacial acetic acid was injected by using a microsyringe into a position close to the muscular layer below the anterior wall serosa of the gastric antrum; when a translucent white spot with a diameter of about 3 mm appeared, the stomach was given back to the enterocoelia, and was enveloped in omentum majus; then, peritoneum, muscular layer and skin were sutured in this order.
# Each drug was divided into 5 groups according to the administration method described above, namely, a model group and four groups with different doses of drugs. Each group of the drugs was administered to 6 to 8 […]. At the third day after the surgery, the treatment started by intragastrically administering drugs to the rats once a day for 7 days, wherein normal saline was administered in the same volume to the rats in the model group instead. The doses of the drugs in each group are listed as follows: Weibeisheng: 0 mg/kg, 0.1 mg/kg, 0.3 mg/kg, 1 mg/kg, and 3 mg/kg; omeprazole: 0 mg/kg, 0.3 mg/kg, 1 mg/kg, 3 mg/kg, and 10 mg/kg; hydrotalcite: 0 mg/kg, 1 mg/kg, 3 mg/kg, 10 mg/kg, and 30 mg/kg. The following indices were measured:
# (1) ulcer index: the longest diameter in the length direction of an ulcer area and the longest diameter in the width direction perpendicular to the longest diameter in the length direction of the ulcer area were measured by a vernier caliper, and the product of the above two diameters is the ulcer index.
# (2) ulcer inhibition rate: it represents the inhibition effect of a drug on the ulcer index. […]
# [2] = tested on: mouse stress-induced gastric ulcers; test: Comparative experiment on inhibition of stress-induced gastric ulcers versus representative drugs; type: in vivo; conditions: mice
# Experimental: The mice were divided into four groups, to which deionized water (the solvent control group), and three kinds of Weibeisheng with pH 7, 8 and 9 at a dose of 1 g/kg were respectively intragastrically administrated. Two hours later, the mice were subjected to stress in water at 21±1° C. for 15 hours, and were administered again two hours before the end of the stress. Then the animals were killed and autopsy was performed. […]
# This experiment was conducted in the same way as described in Experiment Example 2 . […] After the ulcer index of each group was scored, the inhibition effect of each drug on mouse stress-induced gastric ulcers (namely, the maximum inhibition rate Emax) was calculated.
# The bioactive glass formulations (also named Weibeisheng) used in the above Experiment Examples 2 and 5 were prepared from Production Example 1 and a Tris buffer solution in a certain ratio. The ratios used in these two Experiment Examples were determined according to the weight of the mouse and the amount of intragastric administration.
substance,measurement,setting,value
hydrotalcite,therapeutic effect on chronic gastric ulcers,[1],38%
same,Emax (maximum inhibition rate),[1]; intragastric once a day for 7 days,37.8 ± 5.6%
same,ED50 (median effective dose),"[1]; intragastric once a day for 7 days, ulcer inhibition rate",1.0 mg/kg
same,inhibition of occurrence of ulcers,[2]; four doses per drug,can inhibit occurrence of ulcers and are dose-dependent
same,Emax (% inhibition rate),"[2]; intragastric, stress in water 15 hours",43.7 % inhibition rate
